Like-named read-outs stand apart in the source and are kept apart here.
Key:
[1] = molecular target: plasma-membranous human MSLN on cell lines (H226, HPAC, H292, OVCAR-3, MeT-5A) (human) (UniProt Q13421); assay: cELISA on H226 cells expressing human MSLN, detection with HRP-coupled anti-human IgG antibody, OD450-690 nm
[2] = molecular target: plasma-membranous human MSLN on cell lines (H226, HPAC, H292, OVCAR-3, MeT-5A) (human) (UniProt Q13421); assay: as above; remark: listed apart in the source
[3] = molecular target: biotinylated MSLN (human MSLN in the MSLN/MUC16 competition ELISA) (human) (UniProt Q13421); assay: competition ELISA: biotinylated human MSLN (1 ng/ml) preincubated with the titrated antibody, added to coated MUC16, detection with streptavidin-polyHRP40; blocked ligand MUC16
[4] = molecular target: biotinylated MSLN (human MSLN in the MSLN/MUC16 competition ELISA) (human) (UniProt Q13421); assay: as above; remark: listed apart in the source
[5] = molecular target: plasma-membranous human MSLN on cell lines (H226, HPAC, H292, OVCAR-3, MeT-5A) (human) (UniProt Q13421); assay: cELISA on H226 cells expressing human MSLN, detection with HRP-coupled anti-human IgG antibody, OD450-690 nm; remark: listed apart in the source
[6] = molecular target: cynomolgus monkey MSLN on recombinant CHO cell line (cynomolgus monkey); assay: cELISA on CHO cells expressing cynomolgus monkey MSLN, detection with HRP-coupled anti-human IgG antibody, OD450-690 nm

EC50 (read off the curve) [1]: 0.2 nM | EC50 (read off the curve) [2]: 0.1 nM | IC50 (read off the curve) [3]: 0.01 nM | IC50 (read off the curve) [4]: 0.02 nM | EC50 (read off the curve) [5]: 0.08 nM | EC50 (read off the curve) [6]: 0.4 nM
Substance: anti-MSLN reference antibody Amatuximab
